# AlphaSeq binding of Ab-14 heavy chain variants to a spike HR2 peptide

Target peptide (SARS-CoV-2 spike, HR2 region): PDVDLGDISGINAS

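The parent was found by panning a naive human phage display library on the peptide. AAYL49 was designed without a model: most single CDR substitutions and a random sample of double and triple ones. AlphaSeq pools MATa yeast showing the antibodies with MATalpha yeast showing the peptide. After mating in shaken culture at 30 °C for 16 h, diploids were selected and their barcode pairs sequenced. Scores were corrected for input abundance and mapped to Kd with protein pairs of known affinity run in the same pool. The assay was run in three technical replicates.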

Parent scFv Ab-14: VH joined to VL by a 15-residue (Gly4Ser)3 linker. Changes lie in the heavy chain CDRs alone.
VH: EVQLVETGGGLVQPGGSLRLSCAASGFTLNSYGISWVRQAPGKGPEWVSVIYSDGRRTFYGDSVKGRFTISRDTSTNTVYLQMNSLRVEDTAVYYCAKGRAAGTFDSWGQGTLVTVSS
VL: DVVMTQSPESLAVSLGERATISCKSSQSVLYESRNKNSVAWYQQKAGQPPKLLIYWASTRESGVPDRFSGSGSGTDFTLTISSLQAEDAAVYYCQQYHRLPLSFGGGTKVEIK

Substitutions are numbered in sequence along the VH above, starting at 1 (not Kabat). Values are log10 of the apparent Kd in nM; lower means stronger binding. Averages over replicates are reported, and they cover detected replicates only. "n.d." means that the variant was in the library but no mating with the target was seen in that replicate; the authors take this as a sign of poor binding, and no number exists. Background: pairings of library AAYL49 with three empty control strains gave a value in 15% of cases (median 4.06, 5th percentile 2.83). Values in that range, when seen in few replicates, are hard to tell from nonspecific mating. Also given: how often the same scFv was detected with the empty control strains, with their mean in brackets. In this assay the parent's reference entry averaged 0.65; its copy inside this library read 4.11 (one replicate of three).

changes | replicates, log10 nM | mean, log10 nM | control signals
S31Q+R56E+G103V | 0.72 0.75 0.84 | 0.77 | 2/9 (3.05)
F27Q+S53N+A102H | n.d. n.d. n.d. | n.d. | 1/9 (5.59)
R57D+D62H+V64E | n.d. n.d. n.d. | n.d. | 3/9 (3.02)
S31R+I51G+G55L | n.d. n.d. n.d. | n.d. | 0/9
I51E+G55V+A101M | 3.22 n.d. n.d. | 3.22 | 1/9 (3.78)
G26P+I34H+G61W | n.d. 3.62 n.d. | 3.62 | 2/9 (4.81)
G26A+R57F+G61L | n.d. n.d. n.d. | n.d. | 0/9
S35M+V50C+R56W | n.d. n.d. 4.20 | 4.20 | 0/9
Y32S+V50I+S63P | n.d. n.d. n.d. | n.d. | 3/9 (3.09)
F59Q+Y60R+S63D | 3.40 3.22 n.d. | 3.31 | 1/9 (4.59)
T28L+V50N+T104Y | n.d. n.d. n.d. | n.d. | 0/9
L29R+V50C+D54E | n.d. n.d. n.d. | n.d. | 0/9
T28G+R56F+G99A | n.d. 3.98 n.d. | 3.98 | 1/9 (3.35)
S35A+S53Q+R56P | n.d. n.d. n.d. | n.d. | 1/9 (2.00)
Y32N+F59V | n.d. n.d. 2.50 | 2.50 | 0/9
G26L+L29V+Y52H | n.d. n.d. n.d. | n.d. | 3/9 (3.66)
K65H | 2.94 2.68 3.23 | 2.95 | 0/9
I51T+D106H | n.d. n.d. n.d. | n.d. | 1/9 (3.29)
R57D | n.d. n.d. n.d. | n.d. | 1/9 (4.06)
D54Y+V64G+G103E | n.d. n.d. n.d. | n.d. | 0/9
L29P+D106P | n.d. n.d. n.d. | n.d. | 1/9 (2.73)
S31Q+G33H+D54N | n.d. n.d. n.d. | n.d. | 0/9
G61W+D62Q+A101Q | 5.09 4.06 5.72 | 4.96 | 7/9 (5.12)
G26A+L29N+R56P | n.d. n.d. 4.88 | 4.88 | 3/9 (3.80)
R57H+T58N+S107L | n.d. 2.49 4.24 | 3.36 | 1/9 (4.45)
G26H+K65H+R100M | n.d. n.d. n.d. | n.d. | 1/9 (2.03)
G33V+V64M+A102P | 4.66 5.41 n.d. | 5.03 | 3/9 (4.56)
T28M+T58R+D62S | 3.29 2.48 2.77 | 2.85 | 0/9
S35V+Y52N+G99N | n.d. n.d. n.d. | n.d. | 0/9
F27G+T58F+A101I | 3.20 3.17 4.42 | 3.60 | 3/9 (3.35)
L29W+Y52L+D54P | n.d. 3.48 n.d. | 3.48 | 4/9 (4.23)
D54M+R56Q+V64M | n.d. n.d. n.d. | n.d. | 1/9 (3.53)
I34M+I51M+D106H | 4.20 n.d. 4.79 | 4.50 | 0/9
T28A+Y32P+S107H | n.d. n.d. 4.92 | 4.92 | 4/9 (4.83)
S31D+D106K | n.d. n.d. n.d. | n.d. | 2/9 (3.55)
D62R+A102G+S107I | 3.67 3.04 n.d. | 3.35 | 2/9 (3.10)
Y32C+R57G+F105A | n.d. n.d. n.d. | n.d. | 0/9
I34S+G61H+K65D | n.d. 4.03 n.d. | 4.03 | 2/9 (3.74)

The last 5 entries again:

| changes | replicates, log10 nM | mean, log10 nM | control signals |
|---|---|---|---|
| T28A+Y32P+S107H | n.d. n.d. 4.92 | 4.92 | 4/9 (4.83) |
| S31D+D106K | n.d. n.d. n.d. | n.d. | 2/9 (3.55) |
| D62R+A102G+S107I | 3.67 3.04 n.d. | 3.35 | 2/9 (3.10) |
| Y32C+R57G+F105A | n.d. n.d. n.d. | n.d. | 0/9 |
| I34S+G61H+K65D | n.d. 4.03 n.d. | 4.03 | 2/9 (3.74) |

From the AlphaSeq antibody data of Engelhart et al. 2022 (doi:10.1038/s41597-022-01779-4), copy in the FLAb collection.